The results in this text go back to EP0137900B1, “Bis-platinum complexes as antitumor agents” (priority 1983, dated 1985).

The data set is described as follows: Solubility (water, organic solvents, 1% NaHCO3, basic solutions). The settings on record: result in words.

For “benzenepentacarboxylatobis[ethylenediamine] platinum(II)] [Example 4]”, the “solubility in 1% NaHC03 solution” value was “dissolves”.
